# Data published in PubChem BioAssay AID624297 (National Center for Advancing Translational Sciences (NCATS), 2012).
# The entries are a selection whose mix differs from that of the whole data set. Results filed as inconclusive are left out. Where a call stands in place of a potency, no number is given. The source made the active and inactive calls. The call rests on the fitted dose curve; in most records, active means well fitted activation curve with a large enough effect; inconclusive means small, poorly fitted or top-dose-only effect; inactive means no such curve, though single readings can be large or run the other way.
# Test: A quantitative high throughput screen for small molecules that induce DNA re-replication in SW480 colon adenocarcinoma cells. Further: nearly all actives have a fitted effect of over 55% in size.
# Conditions: Hoechst DNA content imaging, 48 h; series mostly up to 46.1 µM
# Potency means the concentration at half of the fitted maximal effect.
row,SMILES,Potency
1,CC1CCN(C(=O)Oc2c(Cl)cc(Cl)c3cccnc23)CC1,inactive
2,O=P(Nc1nccs1)(c1ccccc1)c1ccccc1,inactive
3,CC(C)C(=O)NC(Sc1ccccc1)C(Cl)(Cl)Cl (stereo unspecified),inactive
4,c1nnnn1CCn1cnnn1,inactive
5,COc1ccc(N)c([N+](=O)[O-])c1[N+](=O)[O-],inactive
6,CN(C)C1(CNC(=O)c2ccc(Cl)c(S(N)(=O)=O)c2)CCCCC1,inactive
7,C[C@H]1OP(=O)(Oc2ccccc2)[C@H](O)[C@H](O)[C@H]1N=[N+]=[N-] (stereo partly specified),inactive
8,O=P(Nc1nc2ccccc2s1)(c1ccccc1)c1ccccc1,inactive
9,CN(C(=O)Cc1ccccc1)[C@H]1CC[C@@]2(CCCO2)C[C@@H]1N1CCCC1,inactive
10,O=[N+]([O-])c1ncn(CCn2cnc([N+](=O)[O-])n2)n1,inactive
11,CC(=O)NC(SC(=S)N(C)C)C(Cl)(Cl)Cl (stereo unspecified),active: 0.231 µM
12,O=[N+]([O-])c1ccc(O)c(/C=N/Nc2ccc([N+](=O)[O-])cc2[N+](=O)[O-])c1,inactive
13,O=[As](O)(c1ccccc1)c1ccc(O)cc1,inactive
14,Nc1ccc([As](=O)(O)c2ccc([N+](=O)[O-])cc2)cc1,inactive
15,C(Cc1nn[nH]n1)Cc1nn[nH]n1,inactive
16,O=C(OC1CN2CCC1CC2)c1cccc(Cl)c1 (stereo unspecified),inactive
17,O=C(NC1CCS(=O)(=O)C1)NP(=S)(Oc1ccccc1)Oc1ccccc1 (stereo unspecified),inactive
18,CCNC(=S)/N=C(\N)N[N+](=O)[O-],inactive
19,Cc1ccc(NP(=O)(Oc2cccc(C)c2)Oc2cccc(C)c2)nc1,inactive
20,c1ccc(-c2nn[nH]n2)c(-c2nn[nH]n2)c1,inactive
21,O=P1(N(CCCl)CCCl)OCCC2CCCCN21 (stereo unspecified),inactive
22,Cc1ccc(OP(=O)(Nc2ccccn2)Oc2ccc(C)cc2)cc1,inactive
23,CC(=O)NC(SC(=S)N(CC(C)C)CC(C)C)C(Cl)(Cl)Cl (stereo unspecified),inactive
24,COC(=O)c1cc2c(s1)N=C(c1ccccc1)N(C)P2(=O)N1CCOCC1 (stereo unspecified),inactive
25,CCC(=O)N1C2C3N(C(=O)CC)C1C1N(C(=O)CC)C(C(N1C(=O)CC)N3C(=O)CC)N2C(=O)CC,inactive
26,O=C(OC1CN2CCC1CC2)c1ccccc1 (stereo unspecified),inactive

row,SMILES,Potency
1,CN(C)C(=O)Oc1noc2ccccc12,inactive
2,Cc1ccccc1OP(=O)(Nc1ccccn1)Oc1ccccc1C,inactive
3,CC(NC(=O)COC(=O)C(O)(c1ccccc1)c1ccccc1)c1ccccc1 (stereo unspecified),inactive
4,CCOc1ccc(C2=NCC(CBr)S2)cc1 (stereo unspecified),inactive
5,O=P1(Nc2nc3ccc(Cl)cc3s2)COc2ccccc2O1 (stereo unspecified),inactive
6,CCc1cc(O)c([N+](=O)[O-])c(C)c1[N+](=O)[O-],inactive
7,CC(C)(C)C(=O)NC(Sc1ccccc1)C(Cl)(Cl)Cl (stereo unspecified),inactive
8,COC(=O)C1(C)COP(=O)(NCc2ccccc2)OC1 (stereo unspecified),inactive
9,N#C/C(=C\c1ccc(N(CCBr)CCBr)cc1)C(N)=O,active: 20.6 µM
10,C[C@@H]1C=CCP(=O)(Oc2ccccc2)O1 (stereo partly specified),inactive
11,C[C@H]1OP(=O)(Oc2ccccc2)C[C@@H]2O[C@@H]21 (stereo partly specified),inactive
12,Cc1ccccc1CN(C)C(=O)COC(=O)C(O)(c1ccccc1)c1ccccc1,inactive
13,CC(=O)Nc1ccc(Oc2c([N+](=O)[O-])cc([N+](=O)[O-])cc2[N+](=O)[O-])cc1,inactive
14,CC(=O)Nc1ccc([As](=O)(O)O)c(O)c1,inactive
15,CS(=O)(=O)c1ccc(Cl)c(NC(=O)COC(=O)C(O)(c2ccccc2)c2ccccc2)c1,inactive
16,COc1cc(C(=O)NCC2(N3CCOCC3)CCCCC2)cc(Cl)c1OC(C)C,inactive
17,O=[As](O)(O)c1cccnc1,inactive
18,O=C(OC1CN2CCC1CC2)c1ccc(Cl)cc1 (stereo unspecified),inactive
19,Cc1cccc(OCC(=O)OC2CN3CCC2CC3)c1 (stereo unspecified),inactive
20,CCCOP(=S)(Nc1nc(N)cc(=O)[nH]1)OCCC,inactive
21,Nc1cccc2c([As](=O)(O)O)cccc12,inactive
22,CCOP(=O)(Nc1cccc2ccccc12)OCC,inactive
23,COc1cc(C2NCCC3(OCCO3)C2(C)C)cc(OC)c1OC (stereo unspecified),inactive
24,O=P(Nc1nccs1)(c1ccccc1)c1nc2ccccc2s1 (stereo unspecified),inactive
25,O=P(Nc1nccs1)(Oc1ccccc1)Oc1ccccc1,inactive
26,O=C(O)COc1ccc([As](=O)(O)O)cc1[N+](=O)[O-],inactive

row,SMILES,Potency
1,Nc1ccccc1[As](=O)(O)c1ccccc1,inactive
2,NC(=O)Nc1ccc([As](=O)(O)O)cc1,inactive
3,CN(C(=O)Cc1ccc(Cl)c(Cl)c1)[C@H]1CC[C@@]2(CCCO2)C[C@@H]1N1CCCC1,inactive
4,O=[N+]([O-])c1ccc2c(c1)nnn2O,inactive
5,CN(C(=O)Cc1ccccc1)[C@@H]1CC[C@]2(CCCO2)C[C@H]1N1CCCC1,inactive
6,CCOP1(=S)c2c(C)nn(CCC#N)c2N=C(c2ccc(F)cc2)N1C (stereo unspecified),inactive
7,N#CCCN(C(=O)COC(=O)C(O)(c1ccccc1)c1ccccc1)c1ccc(F)cc1,inactive
8,Cc1ccc(C(=O)OC2CN3CCC2CC3)cc1 (stereo unspecified),inactive
9,CC1CCC(C(C)C)C(OP(=O)(Nc2ccccn2)c2ccccc2)C1 (stereo unspecified),inactive
10,Cc1nn(-c2ccccc2)c2c1P(=O)(N1CCOCC1)N(C)C(c1ccccc1)=N2 (stereo unspecified),inactive
11,CCCC1OP(=O)(Nc2ccccc2)OCC1CC (stereo unspecified),inactive
12,O=C(/C=C/c1ccccc1)OC1CN2CCC1CC2 (stereo unspecified),inactive
13,CN(C)C1(CNC(=O)c2ccc(S(C)(=O)=O)cc2)CCCCC1,inactive
14,O=P1(Nc2ncccn2)COc2ccccc2OC1,inactive
15,NS(=O)(=O)c1cccc(NC(=O)COC(=O)C(O)(c2ccccc2)c2ccccc2)c1,inactive
16,O=P1(Nc2ccc(Br)cn2)COc2ccccc2OC1,inactive
17,O=[As](O)(c1cccs1)c1cccs1,inactive
18,Cc1ccc(OCC(=O)OC2CN3CCC2CC3)cc1 (stereo unspecified),inactive
19,Nc1cccc([As](=O)(O)c2ccccc2)c1,inactive
20,CCOP(=O)(Nc1ccc(C)cn1)OCC,inactive
21,CCOP(=O)(NC(=NC(C)c1ccccc1)NC(C)c1ccccc1)OCC (stereo unspecified),inactive
22,CCC1=CC2Cc3nc4ccc(Cl)cc4c(N)c3C(C1)C2 (stereo unspecified),inactive
23,O=P1(Nc2ccccn2)COc2ccccc2OC1,inactive
24,CC(C)(C)C(=O)NC(Sc1ncccn1)C(Cl)(Cl)Cl (stereo unspecified),inactive
